How the values were obtained:
[1] = test system: Bronchial epithelial cells co-cultured with dermal fibroblast (BF4T system); assay: BioMAP BF4T system (TNFα and IL-4); type: cell-based, human; details: procedure of Example 830
[2] = test system: Peripheral blood mononuclear cells co-cultured with venular endothelial cells (HUVEC) (LPS system); assay: BioMAP LPS system; type: cell-based, human; details: procedure of Example 827
[3] = test system: Coronary artery smooth muscle cells (CASM3C system); assay: BioMAP CASM3C system (IL-1β, TNFα, IFNγ); type: cell-based, human; details: 1 uM
[4] = test system: Peripheral blood mononuclear cells co-cultured with B-cells (BT system); assay: BioMAP BT system (α-IgM and TCR ligands); details: procedure of Example 829
[5] = test system: Bronchial epithelial cells (BE3C system); assay: BioMAP BE3C system (IL-1β, TNFα, IFNγ); type: cell-based, human; details: 10 uM; procedure of Example 831
[6] = test system: Dermal fibroblasts (HDF3CGF system); assay: BioMAP HDF3CGF system (IL-1β, TNFα, IFNγ, EGF, bFGF, PDGF-BB); type: cell-based, human; details: 10 uM
[7] = test system: Venular Endothelial cells (HUVEC) (4H system); assay: BioMAP 4H system (IL-4 and histamine); type: cell-based, human; details: 10 uM; procedure of Example 826
HepG2 cells = assay: Glucose uptake (Glucose Uptake-Glo); type: cell-based, human; details: 50 uM

COC(=O)CCC(=O)CC(=O)SCCNC(=O)CCNC(=O)[C@H](O)C(C)(C)COP(=O)(O)O
≥30%: % increase in Glucose Uptake (HepG2 cells)
≥20%: % increase in sTNFα ([2]; 1 uM) | % decrease in Thrombomodulin ([2]; 10 uM) | % increase in sPGE2 ([2]; 10 uM) | % decrease in B-cell proliferation ([4]; 10 uM) | % decrease in sIL-17 ([4]; 10 uM) | % increase in sIL-2 ([4]; 10 uM) | % decrease in Collagen III [6] | % decrease in TIMP-2 [6] | % increase in PAI-I [6] | % decrease in E-Selectin [7]
≥10%: % decrease in MMP-9 ([1]; 1 uM) | % decrease in tPA ([1]; 10 uM) | % decrease in M-CSF ([2]; 10 uM) | % decrease in sPGE2 ([2]; 10 uM) | % decrease in Thrombomodulin [3] | % decrease in VCAM-1 ([3]; procedure of Example 832) | % increase in sIL-6 ([4]; 1 uM) | % decrease in sIL-6 ([4]; 10 uM) | % decrease in uPA [5] | % increase in PAI-I [5] | % decrease in M-CSF [6] | % increase in 72 Hour Proliferation [6] | % decrease in CXCL11/I-TAC ([6]; procedure of Example 833)
